Target: T1, human A3 adenosine receptor (Homo sapiens, UniProt P0DMS8)
T1 construct: clone HS-21a contained the complete open reading frame corresponding to the human homolog of the rat A3 adenosine receptor; expressed in transfected cells; host or cells: CHO cells, stably transfected (pCMV5-A3; pSVL and pREP vectors are also described)
Assay: Competition binding vs 125I-ABA, membranes of CHO cells stably expressing HS-21a (human A3 adenosine receptor)
Conditions: competition with 125I-ABA
Method: Pellets were resuspended in 5 mM Hepes, pH 7.4/5 mM MgCl2 /0.1 mM benzamidine/0.1 mM PMSF at a protein concentration of 1-2 mg/mL and were incubated with adenosine deaminase (Boehringer Mannheim), 2 U/mL at 37° C. for 20 minutes. […] The assay was terminated by rapid filtration and three washes with ice-cold binding buffer on a Skatron harvester equipped with a receptor binding filtermat (Skatron Instruments, INC). […] Nonspecific binding was measured in the presence of 1 μM I-ABA. […] Binding data were analyzed and competition curves were constructed by use of the nonlinear regression curve fitting program Graph PAD InPlot, Version 3.0 (Graph Pad Software, San Diego).

Sequences of proteins named here, by UniProt entry; tags and fusion partners are left off.
UniProt P0DMS8, whole entry: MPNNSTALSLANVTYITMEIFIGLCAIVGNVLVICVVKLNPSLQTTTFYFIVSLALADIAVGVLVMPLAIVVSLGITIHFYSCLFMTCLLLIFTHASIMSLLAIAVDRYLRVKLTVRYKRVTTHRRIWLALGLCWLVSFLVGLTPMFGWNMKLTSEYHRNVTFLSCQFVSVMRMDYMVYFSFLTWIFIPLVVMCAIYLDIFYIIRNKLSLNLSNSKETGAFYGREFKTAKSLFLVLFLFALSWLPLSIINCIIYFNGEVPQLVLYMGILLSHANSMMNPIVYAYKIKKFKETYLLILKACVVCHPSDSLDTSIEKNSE

Row | Ki | SMILES
1 | 320 nM | C[C@@H](Cc1ccccc1)Nc1ncnc2c1ncn2[C@@H]1O[C@H](CO)[C@@H](O)[C@H]1O [S-PIA, (R,S)-N^6-phenyl-2-propyladenosine]
2 | 34 nM | C[C@H](Cc1ccccc1)Nc1ncnc2c1ncn2[C@@H]1O[C@H](CO)[C@@H](O)[C@H]1O [R-PIA, (R,S)-N^6-phenyl-2-propyladenosine]

From patent US5646156A, “Inhibition of eosinophil activation through A3 adenosine receptor antagonism” (Merck & Co., Inc., priority 1994, dated 1997)
